Values quoted from earlier work, collected in patent US10322143B2.

Chains of the proteins cited; added tags and fusions are not shown. Residues count along the entry.
UniProt Q9UNA0, 262-930 limits assumed: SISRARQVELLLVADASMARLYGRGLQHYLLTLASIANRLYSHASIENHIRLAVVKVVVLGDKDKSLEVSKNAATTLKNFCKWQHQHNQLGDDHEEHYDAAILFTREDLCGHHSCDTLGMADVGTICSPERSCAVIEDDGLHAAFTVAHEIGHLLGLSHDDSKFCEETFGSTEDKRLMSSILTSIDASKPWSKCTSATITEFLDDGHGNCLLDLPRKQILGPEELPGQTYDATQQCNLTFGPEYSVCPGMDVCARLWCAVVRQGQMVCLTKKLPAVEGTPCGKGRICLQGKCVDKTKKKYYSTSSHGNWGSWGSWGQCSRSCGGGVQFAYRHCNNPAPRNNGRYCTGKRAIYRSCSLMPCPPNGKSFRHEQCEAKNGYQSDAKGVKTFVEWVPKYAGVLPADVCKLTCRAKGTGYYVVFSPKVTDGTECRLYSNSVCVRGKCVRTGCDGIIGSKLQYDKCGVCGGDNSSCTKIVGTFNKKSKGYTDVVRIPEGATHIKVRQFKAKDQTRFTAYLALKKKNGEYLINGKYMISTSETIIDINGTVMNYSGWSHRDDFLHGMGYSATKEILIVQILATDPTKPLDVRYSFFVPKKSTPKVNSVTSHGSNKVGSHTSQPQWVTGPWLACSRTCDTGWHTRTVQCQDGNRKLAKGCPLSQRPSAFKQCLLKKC

Target: ADAMTS5 (Homo sapiens (Human), UniProt Q9UNA0)
Conditions: read-out: TS-5 IC50; Deng 2012 Table 4, series 19; cited from earlier work

SMILES: C=CCCNc1nc(NCc2csc(-c3ccccc3)n2)nc(N2CCC[C@@H]2CNS(=O)(=O)C2CC2)n1
- IC50: > 10 µM
